Measured values from patent publication US20100119506A1 (published 2010).

Target: T1, Human PAR-2 peptide (SEQ ID NO:1, Residues 33-54) (human)
T1 peptide: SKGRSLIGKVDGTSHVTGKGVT
Assay: Kinexa, peptide in solution
Procedure: Binding to peptide in solution was determined by Kinexa technology.

B1: Antibody Par-D (antibody, V domains shown)
VH: QVELVESGGGLVQPGGSLRLSCAASGFTFSNHAMHWVRQAPGKGLEWVSAISHPGKFTYYADSVKGRFTISRDNSKNTLYLQMNSLRAEDTAVYYCARHGDGMDYFDFWGQGTLVTVSS
VL: DIELTQPPSVSVAPGQTARISCSGDNIGTKYVYWYQQKPGQAPVLVIYDDNNRPSGIPERFSGSNSGNTATLTISGTQAEDEADYYCQSYDSQTMVFGGGTKLTVLG
notes: Codon-optimized version of Ab4996
Kd: 0.15 nM
